Laboratory results taken from patent US7652067B2, “Aqueous compositions containing monoester salts” (Millenium Specialty Chemicals, Inc., priority 2006, dated 2010).

Assay: Solubilization of hydrophobic organic compound in aqueous sodium monomenthyl glutarate (Na-MMG)

content in clear homogeneous solution with Na-MMG (12.7%) (Example 12: crude MMG mixture neutralised with NaHCO3 and diluted with water)	concentration of hydrophobic compound in clear, homogeneous solution in aqueous Na-MMG (MMG neutralised with 8.8% aqueous sodium bicarbonate, clear homogeneous solution)	SMILES
1.2%	–	CC(C)[C@@H]1CC[C@@H](C)C[C@H]1O [l-menthol]
–	~1.25%	CC(C)[C@@H]1CC[C@@H](C)C[C@H]1OC(=O)[C@H](C)O [l-menthyl lactate]
